Assay results taken from US5270344A, “Method of treating a systemic disorder using trioxolane and diperoxide compounds” (priority 1992, dated 1993).

System: yeast infections of the vagina
Details: suppository every 24 hours

Q: How did the Irritation complaints turn out when Clc1ccccc1C(c1ccccc1)(c1ccccc1)n1ccnc1 [clotrimazole] was run?
A: The Irritation complaints was “a number of these patients complain of irritation”.

Q: And the “Reddening of the vagina” value (within 2 days for Example 3)?
A: Its value is “a significant reddening of the vagina is present”.
